How the values were obtained:
[1] = target: T1, BTK protein and Cy5-labeled IVT RNA (Homo sapiens, UniProt Q06187); test: In vitro ternary complex formation assay (target RNA-bifunctional molecule-BTK), gel supershift; type: binding; conditions: 10 pmol ASOi, 2 pmol BTK protein, 20 pmol Cy5-labeled IVT RNA, PBS, 90 minutes room temperature, PAGE
T1 construct: 2 pmol purified BTK protein
Experimental: A ternary complex is a complex containing three different molecules bound together. […] An inhibitor-conjugated antisense oligonucleotide (hereafter referred to as ASOi) (i.e., Rluc ASO conjugated to Ibrutinib-MPEA) was mixed with the protein target of the inhibitor (i.e., BTK) and the RNA target of the ASO (i.e., Rluc RNA), and allowed to react with the protein and hybridize with the RNA target to form a ternary complex including all 3 molecules. The same was also performed with MALAT1 targeting ASO with the sequence 5′CGUUAACUAGGCUUUA3′ (SEQ ID NO: 4) conjugated at the 5′ end with Ibrutinib (BTK inhibitor; BTKi) and the RNA target of the ASO (i.e., MALAT1 RNA) as shown in FIG. 2A. FIG. 2B depicts the gel analysis results detecting the formation of the ternary complex. Binding of the ASOi to the target protein caused the protein to migrate higher (shift up) on a polyacrylamide gel because of its increased molecular weight. […] Furthermore, labeling the target RNA with a fluorescent dye allowed direct visualization of the target RNA in the supershifted protein complex.
In one reaction (#1), 10 pmol of the MALAT1 targeting ASO (hereafter called N33-ASOi) conjugated at the 5′ end with Ibrutinib was mixed in PBS with 2 pmol purified BTK protein, 200 pmol yeast rRNA (as non-specific blocker) and 20 pmol Cy5-labeled IVT RNA of the following sequence: […]

By UniProt entry, the sequences of proteins in these tests, tags left out. Where a name states a change or a piece, a line headed by the entry shows the natural chain unless it says otherwise.
UniProt Q06187: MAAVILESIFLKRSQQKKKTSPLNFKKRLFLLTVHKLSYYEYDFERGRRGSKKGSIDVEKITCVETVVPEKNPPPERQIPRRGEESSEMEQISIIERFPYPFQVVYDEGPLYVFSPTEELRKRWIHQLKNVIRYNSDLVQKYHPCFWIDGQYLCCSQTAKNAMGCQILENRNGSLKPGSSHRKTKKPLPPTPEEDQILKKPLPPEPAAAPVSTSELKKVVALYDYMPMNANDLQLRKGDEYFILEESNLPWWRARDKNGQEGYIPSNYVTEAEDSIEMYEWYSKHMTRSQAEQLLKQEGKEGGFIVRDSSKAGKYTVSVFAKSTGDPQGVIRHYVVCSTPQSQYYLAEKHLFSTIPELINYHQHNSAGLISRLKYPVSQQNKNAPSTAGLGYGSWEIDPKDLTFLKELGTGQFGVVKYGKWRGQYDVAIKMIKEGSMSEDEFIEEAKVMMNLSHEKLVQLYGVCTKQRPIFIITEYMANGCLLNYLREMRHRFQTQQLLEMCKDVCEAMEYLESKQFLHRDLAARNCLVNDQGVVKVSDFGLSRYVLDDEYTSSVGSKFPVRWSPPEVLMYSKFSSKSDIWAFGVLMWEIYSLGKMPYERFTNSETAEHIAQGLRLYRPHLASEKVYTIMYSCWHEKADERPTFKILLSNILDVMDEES

[2] = target: T2, purified BTK protein (Homo sapiens, UniProt Q06187); test: In vitro complex formation assay, gel shift of BTK protein band (binary complex); type: binding; conditions: 10 pmol ASOi, 2 pmol purified BTK protein, PBS, 90 minutes room temperature, PAGE Bis-Tris 4-12% gel
T2 construct: 2 pmol purified BTK protein
Experimental: In one reaction (#1), 10 pmol of the MALAT1 targeting ASO (hereafter called N33-ASOi) conjugated at the 5′ end with Ibrutinib was mixed in PBS with 2 pmol purified BTK protein, 200 pmol yeast rRNA (as non-specific blocker) and 20 pmol Cy5-labeled IVT RNA of the following sequence:
All reactions were incubated at room temperature for 90 minutes protected from light, then mixed with a loading buffer containing 0.5% SDS final and 10% glycerol final, and complexes separated by PAGE on a Bis-Tris 4-12% gel including an IRDye700 pre-stained protein molecular weight marker (LiCor). Immediately following electrophoresis, the gel was imaged using a LiCor Odyssey system with the 700 nm channel to identify the position of Cy5-IVT-RNA bands and MW marker. Next, proteins in the gel were stained using InstantBlue colloidal Coomassie stain (Expedeon) and re-imaged using transmitted light. The two images were lined up using size markers and lane positions to identify the relative positions of BTK protein bands and Cy5-IVT target RNA. (FIG. 3)

Substance | supershift of the BTK protein band in the presence of Cy5-IVT RNA (ternary complex formation) [1] | increase in MW of the BTK protein band (binary complex formation) [2]
N33-ASOi: MALAT1 targeting ASO 5′CGUUAACUAGGCUUUA3′ (SEQ ID NO: 4) conjugated at the 5′ end with Ibrutinib (cguuaacuaggcuuua; 5' Ibrutinib conjugate) | further supershift | binary complex formation
SCR-ASOi: non-complementary RNA oligo 5′AGAGGUGGCGUGGUAG3′ (SEQ ID NO: 6) conjugated at the 5′ end with Ibrutinib (agagguggcgugguag; 5' Ibrutinib conjugate; non-complementary RNA oligo) | not | –

Source: US20230167450A1, “BIFUNCTIONAL MOLECULES AND METHODS OF USING THEREOF” (Flagship Pioneering, Inc., priority 2020, published 2023)
